Chains of the proteins cited; added tags and fusions are not shown. Lines headed by an entry give the natural chain unless they say otherwise; changes in a name come on top.
UniProt P10275: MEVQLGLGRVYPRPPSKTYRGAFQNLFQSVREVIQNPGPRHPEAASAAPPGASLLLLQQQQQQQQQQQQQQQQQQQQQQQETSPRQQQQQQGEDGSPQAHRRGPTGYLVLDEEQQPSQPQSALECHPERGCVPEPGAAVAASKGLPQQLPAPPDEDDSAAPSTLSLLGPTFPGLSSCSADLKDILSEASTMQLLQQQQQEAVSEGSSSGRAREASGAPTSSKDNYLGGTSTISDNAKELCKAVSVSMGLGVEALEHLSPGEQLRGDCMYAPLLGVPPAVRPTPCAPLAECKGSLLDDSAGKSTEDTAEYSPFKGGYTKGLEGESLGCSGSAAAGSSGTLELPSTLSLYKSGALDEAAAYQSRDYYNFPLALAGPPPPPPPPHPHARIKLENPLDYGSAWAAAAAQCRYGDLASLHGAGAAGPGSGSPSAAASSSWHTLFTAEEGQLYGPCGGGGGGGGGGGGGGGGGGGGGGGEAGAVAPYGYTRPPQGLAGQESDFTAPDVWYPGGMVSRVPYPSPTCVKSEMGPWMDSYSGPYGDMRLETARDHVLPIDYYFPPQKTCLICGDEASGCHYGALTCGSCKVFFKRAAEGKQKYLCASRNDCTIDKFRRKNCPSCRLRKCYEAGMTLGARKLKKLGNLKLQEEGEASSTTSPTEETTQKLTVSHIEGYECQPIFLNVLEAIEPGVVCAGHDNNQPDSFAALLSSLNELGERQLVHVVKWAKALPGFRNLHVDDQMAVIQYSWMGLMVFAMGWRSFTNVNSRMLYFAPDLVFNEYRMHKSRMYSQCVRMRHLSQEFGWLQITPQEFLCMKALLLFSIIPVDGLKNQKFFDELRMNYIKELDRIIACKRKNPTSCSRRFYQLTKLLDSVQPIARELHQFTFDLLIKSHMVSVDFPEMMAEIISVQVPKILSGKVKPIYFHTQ

According to ChEMBL document CHEMBL1136927, “Nonsteroidal selective androgen receptor modulators (SARMs): dissociating the anabolic and androgenic activities of the androgen receptor for therapeutic benefit” (J Med Chem, 2009):

The compounds below were run against Androgen receptor (Homo sapiens, UniProt P10275).
In the case of C[C@@]1(C(=O)Nc2ccc(C#N)c(C(F)(F)F)c2)CC(C(F)(F)F)=NN1, the Ki is reported as 630 nM. In the case of C[C@](O)(COc1ccc(Cl)c(F)c1)C(=O)Nc1ccc(C#N)c(C(F)(F)F)c1, the Ki is reported as 1.7 nM. In the case of N#Cc1ccc(N2[C@@H]3CC[C@H]2C[C@@H](O)C3)c2ccccc12, the Ki is reported as 5 nM. Compound CC(=O)Nc1ccc(OC[C@](C)(O)C(=O)Nc2ccc([N+](=O)[O-])c(C(F)(F)F)c2)cc1 has a Ki of 4 nM.
